Screening data (PubChem)
Cneo AK release: Cryptococcus neoformans lysis via adenylate kinase release | C. neoformans lysis, adenylate kinase release luminescence, 4 h; normalised: neutral wells 0, clomiphene wells 100 | lysis activity, % at 15 µM | 0.2% of 360,000 active | AID 651654;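 active means mean lysis activity across replicates of at least 80%, whatever share of replicates individually reach that level; inactive means mean lysis activity below 80%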
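Material – log-phase Cryptococcus neoformans yeast cells · Input – 5 × 10^6 yeast cells/mL · Medium – fresh YPD growth medium · Doses – single compound concentration per well · Timing – static 4 h at 37 °C with compound, 1 h detection · Detection – adenylate kinase release luminescence · Read-out – signal increase indicating cell lysis · Control set – Clomiphene as positive lysis control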
miR-122 sensor: inhibitors of miR-122 in Huh7 cells | activation (reporter increase), % at 12.5 µM | Huh7 miR-122 Renilla luciferase sensor, 48 h; neutral wells = 0, positive control = 100 | 0.3% of 340,000 active | AID 602342;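 active means mean replicate activation score at least 90 and every replicate individually at or above 90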;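 further: higher luciferase means less miR-122 activity so hits act as miR-122 inhibitors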
Statin myotox sup: protects C2C12 myotubes from simvastatin toxicity; ATP luminescence, 48 h; scaled: DMSO 0, geranylgeraniol control 100; rescue of ATP level, % at 7.49 µM; 0.78% of 330,000 active;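 active means mean ATP rescue above about 67%, or every replicate alone reaching that limit, limit read from the data, passing the limit was not always enough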;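 further: myotubes were challenged with 10 µM simvastatin during compound exposure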
UUG fidelity: alters start codon recognition fidelity in yeast | S. cerevisiae UUG-firefly luciferase reporter, luminescence/redox ratio | activity score, % at 18.7 µM | 350,000 compounds, 0.13% hits | AID 602363;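 active = replicate mean at a twofold rise or more, about +100% in these data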;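 note: firefly luciferase made from a UUG start codon reports start codon fidelity; reporter light over untreated wells divided by growth signal over untreated wells; some hits fall short of that in this replicate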
Active calls of the source: *; [ ] = remark or other dose. Hits are enriched below; roughly 1.2% of the tested compounds scored in any of these assays.

How did Cc1cc(C)c(C#N)c(SCC(=O)N2CCN(Cc3ccccc3)CC2)n1 do in these assays?
Cneo AK release: -0.7; miR-122 sensor: -1.3; Statin myotox sup: 140.4*; UUG fidelity: -23.4

What do the screens show for `CCn1c(SCC(=O)N2CCCC2)nnc1-c1ccc(N)cc1`?
Cneo AK release: 0.9; miR-122 sensor: -0.3; Statin myotox sup: 123.9*; UUG fidelity: -15.0

How did C[C@@H]1CN([C@@H](C)CO)C(=O)Cc2cc(NC(=O)Nc3cccc4ccccc34)ccc2O[C@@H]1CN(C)C(=O)NC1CCCCC1 do in these assays?
Cneo AK release: -6.1; miR-122 sensor: 167.0*[16.7 µM]; Statin myotox sup: -32.3; UUG fidelity: 21.9

How did C[C@@H]1CN([C@H](C)CO)C(=O)Cc2cc(NC(=O)Nc3cccc4ccccc34)ccc2O[C@H]1CN(C)CC1CCCCC1 do in these assays?
Cneo AK release: 4.2; miR-122 sensor: -1.7[16.7 µM]; Statin myotox sup: 75.0*; UUG fidelity: 1.6

What do the screens show for `C=CC(C)n1c(Br)nc2c1c(=O)[nH]c(=O)n2C` (centres undefined)?
miR-122 sensor: 154.3*

Results for C=CCn1c(Br)nc2c1c(=O)[nH]c(=O)n2C ?
Cneo AK release: 0.4; miR-122 sensor: -2.0; UUG fidelity: -14.9

Results for C/C(=N\Nc1cc(C)nc(-c2ccccc2O)n1)c1ccccc1 ?
miR-122 sensor: 5.3; Statin myotox sup: -49.3

Results for Cc1cc(N/N=C/c2ccc(O)c(C)c2O)nc(-c2ccccc2O)n1 ?
Cneo AK release: -2.1; miR-122 sensor: 101.4*; UUG fidelity: 6.3

Results for COCC(=O)Nc1ccc2c(c1)C(=O)N(C)C[C@H](OC)[C@@H](C)CN(CC1CCCCC1)[C@H](C)CO2 ?
Cneo AK release: 46.2; miR-122 sensor: -6.1[16.7 µM]; Statin myotox sup: 9.8; UUG fidelity: -3.0

What do the screens show for `O=C(CN(Cc1ccccc1C(F)(F)F)C(=O)CNC(=O)c1ccco1)NC1CCCC1`?
Cneo AK release: -1.2; miR-122 sensor: 0.7; Statin myotox sup: 112.6*; UUG fidelity: -5.5

What do the screens show for `CCc1ccccc1N(CC(=O)NC1CCCCC1)C(=O)CNC(=O)c1ccco1`?
Cneo AK release: 1.6; miR-122 sensor: 3.8; Statin myotox sup: 32.6; UUG fidelity: -13.6

Results for C[C@H](CO)N1C[C@H](C)[C@@H](CN(C)Cc2ccccc2)Oc2ccc(NC(=O)C3CCCCC3)cc2C1=O ?
Cneo AK release: 4.4; miR-122 sensor: 0.8[16.7 µM]; Statin myotox sup: 2.9; UUG fidelity: 1.8

How did Cc1cc(S(=O)(=O)NCC2CC2)c(Cl)cc1Cl do in these assays?
Cneo AK release: 0.9; miR-122 sensor: 104.8*; Statin myotox sup: 9.7; UUG fidelity: -4.9

What do the screens show for `CC(C)Cc1nc2oc3c(N4CCN(CCO)CC4)ncnc3c2c2c1CCCC2`?
Cneo AK release: 0.7; miR-122 sensor: -4.7; Statin myotox sup: 7.2; UUG fidelity: -3.6

How did CCOC(=O)N1CCN(c2ncnc3c2oc2nc(C(C)C)c4c(c23)CCC4)CC1 do in these assays?
Cneo AK release: -3.5; miR-122 sensor: 206.8*; Statin myotox sup: 4.9; UUG fidelity: -18.5

Results for Nc1nonc1C(=O)N/N=C/c1ccc(-c2cccc([N+](=O)[O-])c2)o1 ?
Cneo AK release: -0.6; miR-122 sensor: 0.5; Statin myotox sup: 175.5*; UUG fidelity: 8.5

What do the screens show for `CCOC(=O)c1cc(=O)n(Cc2ccccc2C)c2ccccc12`?
Cneo AK release: -1.7; miR-122 sensor: -2.5; Statin myotox sup: 103.0*; UUG fidelity: -4.4

Results for Cc1ccc(Cn2c(=O)cc(C(=O)O)c3ccccc32)cc1 ?
Cneo AK release: -5.1; miR-122 sensor: 3.0; Statin myotox sup: 2.3; UUG fidelity: -0.8

Results for CCNC(=O)C[C@H]1C=C[C@H](NC(=O)NC2CCCCC2)[C@@H](CO)O1 ?
Cneo AK release: 53.7; Statin myotox sup: -1.9; UUG fidelity: 2.3

How did Cc1noc(C)c1NC(=O)Nc1ccc2c(c1)CC(=O)N([C@H](C)CO)C[C@H](C)[C@H](CN(C)S(=O)(=O)c1c(C)noc1C)O2 do in these assays?
Cneo AK release: 0.1; miR-122 sensor: 10.9[16.7 µM]; Statin myotox sup: -22.6; UUG fidelity: 5.2

Looked up by compound from above:
What do the screens show for `CC(C)Cc1nc2oc3c(N4CCN(CCO)CC4)ncnc3c2c2c1CCCC2`?
Cneo AK release: 0.7; miR-122 sensor: -4.7; Statin myotox sup: 7.2; UUG fidelity: -3.6

Results for C/C(=N\Nc1cc(C)nc(-c2ccccc2O)n1)c1ccccc1 ?
miR-122 sensor: 5.3; Statin myotox sup: -49.3

What do the screens show for `O=C(CN(Cc1ccccc1C(F)(F)F)C(=O)CNC(=O)c1ccco1)NC1CCCC1`?
Cneo AK release: -1.2; miR-122 sensor: 0.7; Statin myotox sup: 112.6*; UUG fidelity: -5.5

Continuation.
What do the screens show for `Cc1c(C(=O)Nc2ccc(Cl)cn2)oc2ccccc12`?
Cneo AK release: -1.6; miR-122 sensor: 0.5; Statin myotox sup: 85.6*; UUG fidelity: -13.5

How did Cc1ccc(C(=O)N(c2ccccn2)C(C)c2ccco2)cc1C (centres undefined) do in these assays?
Cneo AK release: -1.1; miR-122 sensor: 55.7; Statin myotox sup: 123.0*; UUG fidelity: -7.8

How did CCOC(=O)C1CCN(C(=O)c2c(-c3c(Cl)cccc3Cl)noc2C)CC1 do in these assays?
Cneo AK release: -0.5; miR-122 sensor: -1.0; Statin myotox sup: 93.3*; UUG fidelity: 0.3

What do the screens show for `Cc1onc(C(=O)N2CCC(C(N)=O)CC2)c1-c1ccccc1Cl`?
Cneo AK release: 1.1; miR-122 sensor: 0.6; Statin myotox sup: 91.8*; UUG fidelity: -11.0

How did Cc1onc(-c2ccccc2Cl)c1C(=O)N1CCC(C(N)=O)CC1 do in these assays?
Cneo AK release: 2.4; miR-122 sensor: -2.3; Statin myotox sup: 0.3; UUG fidelity: -0.8

What do the screens show for `C[C@@H]1CCCCO[C@H](CN(C)S(C)(=O)=O)[C@@H](C)CN([C@@H](C)CO)C(=O)c2cc(NS(=O)(=O)c3ccccc3)ccc2O1`?
Cneo AK release: -4.1; miR-122 sensor: -2.8[16.7 µM]; Statin myotox sup: -13.1; UUG fidelity: 32.4

What do the screens show for `Cc1noc(C)c1NC(=O)N(C)C[C@@H]1Oc2ncc(C3=CCCC3)cc2C(=O)N([C@H](C)CO)C[C@@H]1C`?
Cneo AK release: -0.7; miR-122 sensor: -19.0[16.7 µM]; Statin myotox sup: -9.3; UUG fidelity: 12.4

What do the screens show for `CCOC(=O)n1c(=O)n(Cc2c(Cl)cccc2Cl)c2ccccc21`?
Cneo AK release: 3.2; miR-122 sensor: 32.0; Statin myotox sup: 175.1*; UUG fidelity: -8.1

What do the screens show for `O=c1[nH]c(Nc2ccccc2Cl)cc2ccccc12`?
Cneo AK release: -1.8; miR-122 sensor: 5.8; Statin myotox sup: 136.3*; UUG fidelity: -88.5

What do the screens show for `COC(=O)C[C@@H]1CC[C@@H]2[C@@H](COc3ccc(NC(=O)Nc4ccc(C)cc4)cc3C(=O)N2C)O1`?
Cneo AK release: -1.7; miR-122 sensor: -1.0[16.7 µM]; Statin myotox sup: 23.2; UUG fidelity: 15.4

How did O=C(Cc1cc(C(=O)O)c2ccccc2n1)Nc1ccccc1 do in these assays?
Cneo AK release: -11.9; miR-122 sensor: 1.3; Statin myotox sup: -19.9; UUG fidelity: -15.5

What do the screens show for `O=C(Cc1coc(-c2ccc(F)cc2)n1)Nc1ccccc1`?
Cneo AK release: -3.5; miR-122 sensor: -8.0; Statin myotox sup: 106.1*; UUG fidelity: -5.7

How did CCCC(=O)Nc1ccc2c(c1)C(=O)N(C)C[C@@H](OC)[C@@H](C)CN(C(=O)c1ccncc1)[C@H](C)CO2 do in these assays?
Cneo AK release: -10.9; Statin myotox sup: -1.1; UUG fidelity: 33.7

What do the screens show for `C#CCOCCOCCOCCNc1nc(N2CCOCC2)nc(N2CCN(C(=O)CCCCCCCCCCNC(=O)[C@@H]([C@H](C)CC)n3cc(CCCCCN)nn3)CC2)n1`?
Cneo AK release: -0.7; miR-122 sensor: -7.4; Statin myotox sup: 98.7*; UUG fidelity: 7.5
